Several values for one entry are separate records, joined by “and”; a condition that tells them apart may be missing. Identical values can stand only once.

By UniProt entry, the sequences of proteins in these tests, tags left out. Residues count along the entry.
UniProt Q14451, 431-527 limits assumed: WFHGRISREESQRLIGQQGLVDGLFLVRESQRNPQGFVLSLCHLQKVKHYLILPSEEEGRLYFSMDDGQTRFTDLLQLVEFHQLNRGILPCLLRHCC

For orientation: Kd means a measure of binding affinity in units of concentration. A lower Kd goes with tighter binding.

For one data set, the system named is HeLa cells. Kind of data set: Internalization of peptide inside HeLa cells quantified using mass spectrometry. The settings on record: 20 μM peptide, 1 h, 37 °C, LC-MS/MS MRM.
The target of the next data set is Grb7-SH2 domain (Homo sapiens, UniProt Q14451). Kind of data set: ITC binding of G7-peptides to Grb7-SH2.
The mark [1] stands for this setting: percentage of total unbound peptide (11 μM in buffer).

`CC[C@H](C)[C@H](NC(=O)[C@H](CCCCN)NC(=O)[C@@H](NC(=O)[C@H](CCC(N)=O)NC(=O)[C@H](CCCNC(=N)N)NC(=O)[C@@H]1CSCC(=O)N[C@@H](Cc2c[nH]c3ccccc23)C(=O)N[C@@H](Cc2ccccc2)C(=O)N[C@@H](CCC(=O)O)C(=O)NCC(=O)N[C@@H](Cc2ccc(O)cc2)C(=O)N[C@@H](CC(=O)O)C(=O)N[C@@H](CC(N)=O)C(=O)N[C@@H]([C@@H](C)O)C(=O)N[C@@H](Cc2ccccc2)C(=O)N2CCC[C@H]2C(=O)N1)[C@@H](C)CC)C(=O)N[C@@H](Cc1c[nH]c2ccccc12)C(=O)N[C@@H](Cc1ccccc1)C(=O)N[C@@H](CCC(N)=O)C(=O)N[C@@H](CC(N)=O)C(=O)N[C@@H](CCCNC(=N)N)C(=O)N[C@@H](CCCNC(=N)N)C(=O)N[C@@H](CCSC)C(=O)N[C@@H](CCCCN)C(=O)N[C@@H](Cc1c[nH]c2ccccc12)C(=O)N[C@@H](CCCCN)C(=O)N[C@@H](CCCCN)C(N)=O` [G7-18NATE-Pen]: in the data set with HeLa cells (medium without serum, triplicate, repeated on two independent days), the “Total Concentration of Peptide Associated with Cells, Average” value is listed as 696.4 nM. Further, in the data set with HeLa cells (medium without serum, pellet = membrane-associated, triplicate, two independent days), the “Concentration of Peptide Associated with Pellet, Average” value is ~300 nM and 312.8 nM. In addition, in the data set on HeLa cells (setting [1]), the “% Unbound Peptide Associated with Pellet, Average” value was found to be 2.8% and the “% Unbound Peptide Associated with Supernatant, Average” value is reported as 2.0%. Moreover, the “% Unbound Peptide Associated with Total Cell, Average” value in the data set on HeLa cells (percentage of total unbound peptide (11 μM measurable in buffer at end of incubation)) is listed as 6.2%. In addition, on Grb7-SH2 domain, the Kd worked out at 3.45 µM. Further, at Grb7-SH2 domain (ITC, 25 °C, 1 mM Na3PO4, 20 mM HEPES, 150 mM NaCl, 4 mM β-mercaptoethanol (pH 7.4), single-site binding model), the Kb is recorded as 0.290 10^6 M^−1.
